# Experimental data published in PMC6891315, “Synthesis of Novel Farnesoid X Receptor Agonists and Validation of Their Efficacy in Activating Differentiation of Mouse Bone Marrow-Derived Mesenchymal Stem Cells into Osteoblasts” (Molecules, 2019).
# The chains behind the UniProt entries cited, without tags or fusion partners. Residues count along the entry.
# UniProt Q96RI1, 262-486 limits assumed: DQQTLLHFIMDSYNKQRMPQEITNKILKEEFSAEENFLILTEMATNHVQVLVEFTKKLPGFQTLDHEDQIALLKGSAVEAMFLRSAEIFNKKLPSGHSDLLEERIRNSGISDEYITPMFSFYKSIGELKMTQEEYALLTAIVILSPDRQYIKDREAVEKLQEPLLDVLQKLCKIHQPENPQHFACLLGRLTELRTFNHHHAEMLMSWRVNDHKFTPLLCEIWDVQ
# Molecular target: T1, FXR (Homo sapiens, UniProt Q96RI1)
# T1 construct: purchased Thermo Fisher Scientific
# Assay: LanthaScreen TR-FRET FXR coactivator binding assay
# Settings: percentage activity with respect to 0.5 μM GW4064
smiles,measurement,value
CC(C)c1onc(-c2c(Cl)cccc2Cl)c1COc1ccc(/C=C/c2cccc(C(=O)O)c2)c(Cl)c1 [GW4064],Maximum Activity,135.8 ± 42.6%
